Target: T1, ERβ pY36 (Homo sapiens, UniProt Q92731)
T1 construct: host or cells: MDA-MB-231 (human TNBC cell line)
Assay: pY36-specific phosphorylation signal of ERβ in MDA-MB-231 cells
Format: cell-based
Conditions: MDA-MB-231 cells (FIG. 16A)
Description: FIG. 16. […] See, Yuan et al. (2016) listed below, which is incorporated by reference herein for all purposes.

Protein sequences, listed by entry. Tags and fused reporters are not part of them.
UniProt Q92731, whole entry: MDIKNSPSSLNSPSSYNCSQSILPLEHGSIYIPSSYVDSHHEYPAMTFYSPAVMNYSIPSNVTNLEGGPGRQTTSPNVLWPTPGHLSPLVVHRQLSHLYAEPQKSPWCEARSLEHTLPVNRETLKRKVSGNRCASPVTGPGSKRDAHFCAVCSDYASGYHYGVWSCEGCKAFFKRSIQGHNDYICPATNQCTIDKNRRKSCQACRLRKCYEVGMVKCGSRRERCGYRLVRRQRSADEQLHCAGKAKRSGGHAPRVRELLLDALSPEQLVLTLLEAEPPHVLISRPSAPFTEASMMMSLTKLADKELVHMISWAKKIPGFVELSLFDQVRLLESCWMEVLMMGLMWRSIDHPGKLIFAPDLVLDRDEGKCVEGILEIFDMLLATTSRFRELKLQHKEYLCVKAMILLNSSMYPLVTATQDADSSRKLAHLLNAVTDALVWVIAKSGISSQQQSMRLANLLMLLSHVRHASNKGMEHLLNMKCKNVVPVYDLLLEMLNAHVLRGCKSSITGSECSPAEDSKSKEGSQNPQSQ

C[C@]12CC[C@@H]3c4ccc(O)cc4CC[C@H]3[C@@H]1CC[C@@H]2O [17-β-estradiol, reference compound]
pY36-specific phosphorylation signal: enhanced

From US12070444B2, “Modulation of molecular markers using S-equol” (Board of Regents, The University of Texas System, priority 2020, dated 2024)
